Test results as given in patent publication US7419999B2, “Gamma lactams as prostaglandin agonists and use thereof” (Applied Research Systems ARS Holding N.V., priority 2002, dated 2008).

Test system: mature 10-week CD-1 mice
Assay: In vivo ovulation assay (mature mouse ovulation induction model)
Settings: Group 2: 0.12 mg/kg i.p., 5IU PMSG priming
Experimental: Ovulation triggering activity of compounds of the invention are tested in a mature mouse ovulation induction model.
Mature 10-week-old CD-mice are used. Reagents are prepared as follows: PMSG (pregnant mare serum gonadotropin) (Calbiochem, cat #367222) and hCG (Serono) are diluted in PBS. PGE2 (Cayman, Ann Arbor Mich.) is dissolved in ethanol and diluted with 0.154 M NaHCO2 Buffer (pH 8.0) to final concentration of ethanol of less than 3 percent. A test compound (based on solubility) is pre-dissolved in ethanol, DMSO or other reagents. Test compound is then diluted with saline or other diluents such as PBS or NP3S (5% N-methyl-pyrrolidinone/30% PEG-400/25% PEG-200/20% Propylene Glycol in saline). PMSG serves to stimulate follicule growth and maturation. […]
The following test protocol was employed for the test animals (typically 5 animals per test group). • Day 1: Inject 5 IU PMSG in 200 µL PBS (i.p. 15:00 PM) • Day 2: No administration • Day 3: Inject an ovulation triggering dose of hCG (i.p.) or hCG replacement (PGE2 or compound of the invention, s.c., i.v. or oral route), 15:00 PM • Day 4: Eighteen hours after injections of ovulation triggers, animals were sacrificed by CO2 asphyxiation and abdominal cavities were opened using fine scissors and forceps. […] The numbers of ovulated ova in the oviducts were counted using upright microscope with 4× objective and recorded. […]

## HCG: human Chorionic Gonadotropin (Serono), ovulation triggering dose
  average of ova obtained: An average of 27.2 ova were obtained with Group 2;
